Measured values published in patent US20240246954A1, “COMPOSITIONS AND METHODS FOR INHIBITING KRAS” (TheRas, Inc., priority 2021, published 2024).
pIC50: −log10 of the molar value.

Protein sequences, listed by entry. Tags and fused reporters are not part of them. Residues count along the entry.
UniProt P01116, 1-169 isoform 2 G12D limits assumed: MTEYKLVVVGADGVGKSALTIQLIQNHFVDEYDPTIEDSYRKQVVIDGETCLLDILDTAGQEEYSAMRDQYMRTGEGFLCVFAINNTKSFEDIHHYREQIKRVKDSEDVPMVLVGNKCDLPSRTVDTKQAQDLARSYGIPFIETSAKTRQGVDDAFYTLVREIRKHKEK
UniProt P01116, 1-169 isoform 2 G12D/Q25A limits assumed: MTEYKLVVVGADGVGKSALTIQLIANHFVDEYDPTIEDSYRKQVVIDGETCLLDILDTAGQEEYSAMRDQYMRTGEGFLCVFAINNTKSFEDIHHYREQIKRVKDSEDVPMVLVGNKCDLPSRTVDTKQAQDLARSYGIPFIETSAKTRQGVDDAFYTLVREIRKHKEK

Legend:
[1] = biological target: Avi-KRAS G12D (1-169) GppNHp/RAF1 RBD-3×FLAG (52-151) (Homo sapiens, UniProt P01116, G12D); assay: HTRF Raf1-KRAS G12D-GppNHp disruption assay; format: biochemical; conditions: read-out: Raf1-GppNHp-KRAS G12D disruption, 1 h incubation
[2] = biological target: Avi-KRAS G12D/Q25A (1-169) GppNHp/3×FLAG-PI3KCA (157-299) (Homo sapiens, UniProt P01116, G12D/Q25A); assay: HTRF PI3KCA-KRAS G12D/Q25A-GppNHp disruption assay; format: biochemical; conditions: read-out: PI3KCA-GppNHp-KRAS G12D/Q25A disruption, 1 h incubation

- pIC50 [1]: 4.52 to 5.00
- pIC50 [2]: 4.52 to 5.00
Structure (SMILES): CN1CCC[C@H]1COc1nc(N[C@H]2C[C@@H](N)C2)c2cc(Cl)c(-c3ccc(F)c4sc(N)nc34)c(F)c2n1
